Experimental data reported in patent EP0392745B1, “Immunoconjugates and prodrugs and their use in association for drug delivery” (CELLTECH LIMITED, priority 1989, dated 1990).

Chains of the proteins cited; added tags and fusions are not shown. Residues count along the entry.
UniProt P05364, 21-381: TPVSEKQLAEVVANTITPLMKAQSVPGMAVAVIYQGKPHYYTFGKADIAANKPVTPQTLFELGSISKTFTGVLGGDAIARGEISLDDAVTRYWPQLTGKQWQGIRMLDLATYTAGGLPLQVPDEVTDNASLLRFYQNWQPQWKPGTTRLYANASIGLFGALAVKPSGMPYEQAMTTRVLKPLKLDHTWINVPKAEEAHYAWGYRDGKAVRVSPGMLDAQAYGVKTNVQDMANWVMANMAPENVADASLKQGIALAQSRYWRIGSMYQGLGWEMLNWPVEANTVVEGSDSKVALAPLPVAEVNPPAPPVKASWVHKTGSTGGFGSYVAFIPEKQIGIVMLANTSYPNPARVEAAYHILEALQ
UniProt P62593, 24-286 limits assumed: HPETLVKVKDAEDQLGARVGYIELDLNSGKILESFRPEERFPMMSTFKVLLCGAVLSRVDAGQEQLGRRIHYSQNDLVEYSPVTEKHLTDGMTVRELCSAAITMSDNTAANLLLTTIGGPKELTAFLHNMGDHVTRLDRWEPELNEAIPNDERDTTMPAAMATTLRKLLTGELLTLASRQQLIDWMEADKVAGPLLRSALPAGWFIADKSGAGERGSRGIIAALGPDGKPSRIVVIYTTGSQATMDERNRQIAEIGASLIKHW

Key:
Experiment in all cases: β-Lactamase catalysed hydrolysis of prodrug, rate of hydrolysis (UV absorbance)
[1] = biological target: β-lactamase (Enterobactor cloacae p99) (Enterobacter cloacae, UniProt P05364); type: biochemical; conditions: E.cloacae β-lactamase 0.1-10 µg/ml, 0.1mg/ml prodrug in buffer, decrease in absorbance at 265nm
[2] = biological target: T1, β-lactamase (Bacillus cereus II) (Bacillus cereus, UniProt P04190); type: biochemical; conditions: B.cereus II β-lactamase 0.1-10 µg/ml, 0.1mg/ml prodrug in buffer, decrease in absorbance at 265nm
T1 sequence (P04190 31-257): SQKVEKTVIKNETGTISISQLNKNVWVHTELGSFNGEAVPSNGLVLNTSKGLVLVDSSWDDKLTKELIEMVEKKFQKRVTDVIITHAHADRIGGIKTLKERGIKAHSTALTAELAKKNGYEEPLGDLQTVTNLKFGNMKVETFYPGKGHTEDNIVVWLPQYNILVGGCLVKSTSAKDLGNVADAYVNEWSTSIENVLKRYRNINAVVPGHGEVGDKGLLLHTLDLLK

[3] = biological target: β-lactamase (E.coli RTEM) (Escherichia coli, UniProt P62593); conditions: E.coli β-lactamase 0.1-10 µg/ml, 0.1mg/ml prodrug in buffer; 265nm (6-mercaptopurine followed at 323nm)

SMILES: O=C(Cc1cccs1)N[C@@H]1C(=O)N2C(C(=O)O)=C(COC(=O)N(CCCl)CCCl)CS[C@H]12 [Example 2, 3-(Bis-2-chloroethylcarbamoyl)-7β-(2-acetamido)-3-cephem-4-carboxylic acid]
- Km [1]: 109 µM
- kcat [1]: 515 5⁻¹

SMILES: O=C(Cc1cccs1)N[C@@H]1C(=O)N2C(C(=O)O)=C(COC(=O)N(CCBr)CCBr)CS[C@H]12 [Example 3, 3-(Bis-2-bromoethylcarbamoyl)-7β-(2-acetamido)-3-cephem-4-carboxylic acid]
- Km [1]: 73 µM
- kcat [1]: 151 5⁻¹
- Km [2]: 63 µM
- kcat [2]: 3.5 5⁻¹

SMILES: CC(Cl)CN(CC(C)Cl)C(=O)OCC1=C(C(=O)O)N2C(=O)[C@@H](NC(=O)Cc3cccs3)[C@H]2SC1 (stereo partly drawn) [Example 4, 3-(Bis-2-chloropropylcarbamoyl)-7β-(2-acetamido)-3-cephem-4-carboxylic acid]
- Km [2]: 54 µM
- kcat [2]: 3.4 5⁻¹
- Km [3]: 70 µM
- kcat [3]: 10.5 5⁻¹

SMILES: CC(Br)CN(CC(C)Br)C(=O)OCC1=C(C(=O)O)N2C(=O)[C@@H](NC(=O)Cc3cccs3)[C@H]2SC1 (stereo partly drawn) [Example 5, 3-(Bis-2-bromopropylcarbamoyl)-7β-(2-acetamido)-3-cephem-4-carboxylic acid]
- Km [1]: 40 µM
- kcat [1]: 120 5⁻¹

SMILES: O=C(Cc1cccs1)N[C@@H]1C(=O)N2C(C(=O)O)=C(CSc3ncnc4[nH]cnc34)CS[C@H]12 [Example 7, 3-(Purin-6-ylthiomethyl)-7β-(2-acetamido)-3-cephem-4 carboxylic acid]
- kcat [3]: 8.1 5⁻¹
